Laboratory results taken from the Kinase Knowledgebase extract (Sharma et al. 2016).

By UniProt entry, the sequences of proteins in these tests, tags left out.
UniProt P00533, whole entry, looked up: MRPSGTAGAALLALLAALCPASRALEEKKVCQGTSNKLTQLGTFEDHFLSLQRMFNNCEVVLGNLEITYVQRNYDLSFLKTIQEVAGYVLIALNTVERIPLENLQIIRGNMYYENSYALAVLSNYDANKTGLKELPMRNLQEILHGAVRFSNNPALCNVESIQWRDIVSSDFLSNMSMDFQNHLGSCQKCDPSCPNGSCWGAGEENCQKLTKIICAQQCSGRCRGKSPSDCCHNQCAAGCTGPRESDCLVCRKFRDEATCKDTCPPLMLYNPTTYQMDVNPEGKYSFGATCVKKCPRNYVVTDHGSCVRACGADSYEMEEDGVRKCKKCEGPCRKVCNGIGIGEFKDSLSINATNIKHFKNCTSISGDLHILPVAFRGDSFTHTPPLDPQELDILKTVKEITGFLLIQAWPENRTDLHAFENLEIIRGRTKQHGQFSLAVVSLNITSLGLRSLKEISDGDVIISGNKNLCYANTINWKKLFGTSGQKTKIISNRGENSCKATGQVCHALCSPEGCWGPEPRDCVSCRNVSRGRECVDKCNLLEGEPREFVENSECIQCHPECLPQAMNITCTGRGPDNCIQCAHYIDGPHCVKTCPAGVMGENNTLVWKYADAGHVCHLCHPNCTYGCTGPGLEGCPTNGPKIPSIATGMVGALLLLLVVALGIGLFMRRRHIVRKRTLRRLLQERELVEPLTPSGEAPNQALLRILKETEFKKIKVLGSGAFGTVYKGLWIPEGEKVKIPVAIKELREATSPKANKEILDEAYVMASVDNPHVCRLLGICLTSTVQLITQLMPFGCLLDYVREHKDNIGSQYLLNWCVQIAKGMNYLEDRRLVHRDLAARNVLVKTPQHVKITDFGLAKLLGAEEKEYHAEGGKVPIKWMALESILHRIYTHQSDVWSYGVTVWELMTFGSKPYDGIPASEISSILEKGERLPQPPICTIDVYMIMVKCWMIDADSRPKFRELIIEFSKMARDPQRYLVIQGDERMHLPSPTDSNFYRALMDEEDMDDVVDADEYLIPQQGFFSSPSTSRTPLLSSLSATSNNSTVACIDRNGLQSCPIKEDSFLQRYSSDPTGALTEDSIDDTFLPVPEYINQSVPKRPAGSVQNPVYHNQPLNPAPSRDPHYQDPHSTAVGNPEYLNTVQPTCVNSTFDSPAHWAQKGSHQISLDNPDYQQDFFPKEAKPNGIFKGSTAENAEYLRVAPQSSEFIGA

Target: EGFR (human) (UniProt P00533)
Settings: hn5

## CS(=O)(=O)CCNCCCCOc1ccc2ncnc(Nc3ccc4c(cnn4Cc4cccc(F)c4)c3)c2c1
  pIC50: > 5.30

pIC50: −log10 of the molar value.
